# In patent US8952169B2 (Genentech, Inc., priority 2012, dated 2015):
# By UniProt entry, the sequences of proteins in these tests, tags left out.
# UniProt Q15858, whole entry, looked up: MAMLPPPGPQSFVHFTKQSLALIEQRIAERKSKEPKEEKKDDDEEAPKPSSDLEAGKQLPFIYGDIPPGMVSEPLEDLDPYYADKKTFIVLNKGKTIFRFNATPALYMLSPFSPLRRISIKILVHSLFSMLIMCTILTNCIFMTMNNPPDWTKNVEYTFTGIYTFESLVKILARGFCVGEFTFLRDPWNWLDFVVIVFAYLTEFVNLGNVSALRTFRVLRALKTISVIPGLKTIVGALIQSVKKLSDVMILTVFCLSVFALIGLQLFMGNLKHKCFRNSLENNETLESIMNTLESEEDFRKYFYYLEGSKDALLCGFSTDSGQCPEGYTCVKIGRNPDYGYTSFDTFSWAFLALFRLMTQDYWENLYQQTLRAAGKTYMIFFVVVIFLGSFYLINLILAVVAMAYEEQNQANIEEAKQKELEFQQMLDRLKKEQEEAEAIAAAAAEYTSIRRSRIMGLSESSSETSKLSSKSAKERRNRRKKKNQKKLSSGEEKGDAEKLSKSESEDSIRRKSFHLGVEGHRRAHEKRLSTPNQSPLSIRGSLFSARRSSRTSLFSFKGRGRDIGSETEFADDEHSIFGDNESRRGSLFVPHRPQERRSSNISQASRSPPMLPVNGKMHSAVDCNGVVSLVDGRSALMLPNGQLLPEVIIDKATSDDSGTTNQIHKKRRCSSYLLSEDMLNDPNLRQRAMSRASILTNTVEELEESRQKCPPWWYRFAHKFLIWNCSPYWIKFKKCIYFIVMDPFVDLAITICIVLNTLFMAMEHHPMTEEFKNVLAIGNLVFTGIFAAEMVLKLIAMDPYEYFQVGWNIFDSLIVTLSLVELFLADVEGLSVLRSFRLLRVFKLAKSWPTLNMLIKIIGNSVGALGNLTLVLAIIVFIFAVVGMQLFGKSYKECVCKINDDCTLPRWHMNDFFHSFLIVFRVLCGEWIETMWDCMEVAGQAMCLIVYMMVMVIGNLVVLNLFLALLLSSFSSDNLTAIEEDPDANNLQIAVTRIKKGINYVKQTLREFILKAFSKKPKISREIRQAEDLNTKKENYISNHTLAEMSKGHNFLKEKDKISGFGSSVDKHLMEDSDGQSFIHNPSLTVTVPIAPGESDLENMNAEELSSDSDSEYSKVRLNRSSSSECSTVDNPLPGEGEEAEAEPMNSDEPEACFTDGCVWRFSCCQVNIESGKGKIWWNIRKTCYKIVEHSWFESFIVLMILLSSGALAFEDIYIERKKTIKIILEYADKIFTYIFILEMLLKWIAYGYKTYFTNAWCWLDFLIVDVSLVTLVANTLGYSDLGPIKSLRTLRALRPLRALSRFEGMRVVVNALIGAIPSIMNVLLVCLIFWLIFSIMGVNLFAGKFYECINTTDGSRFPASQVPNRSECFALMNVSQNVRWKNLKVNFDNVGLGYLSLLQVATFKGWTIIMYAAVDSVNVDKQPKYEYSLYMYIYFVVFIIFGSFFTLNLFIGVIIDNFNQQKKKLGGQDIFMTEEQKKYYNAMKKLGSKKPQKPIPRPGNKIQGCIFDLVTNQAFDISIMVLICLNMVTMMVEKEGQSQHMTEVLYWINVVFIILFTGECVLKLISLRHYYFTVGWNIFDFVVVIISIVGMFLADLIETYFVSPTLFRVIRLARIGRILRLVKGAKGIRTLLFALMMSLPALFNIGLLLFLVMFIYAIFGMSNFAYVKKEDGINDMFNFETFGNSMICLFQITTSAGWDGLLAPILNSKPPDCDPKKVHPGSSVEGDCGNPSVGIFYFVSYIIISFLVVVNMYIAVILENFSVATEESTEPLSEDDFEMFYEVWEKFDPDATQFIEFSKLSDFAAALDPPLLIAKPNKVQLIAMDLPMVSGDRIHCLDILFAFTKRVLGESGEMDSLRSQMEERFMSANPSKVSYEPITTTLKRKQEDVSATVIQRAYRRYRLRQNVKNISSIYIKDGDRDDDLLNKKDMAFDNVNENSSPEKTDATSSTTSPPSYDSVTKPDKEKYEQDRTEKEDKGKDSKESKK
# Target: T1, hNav1.7 (Homo sapiens (Human), UniProt Q15858)
# Assay: Tritiated aryl sulfonamide binding to membranes from cells expressing hNav1.7 and the β1 subunit (competitive binding)
# Details: membranes with hNav1.7 and β1 subunit; [3H]compound displacement, 18 h, room temperature; read-out: NaV1.7 395 Memb Binding (IC50)
# Procedure: Tritiated Aryl Sulfonamide Binding to Membranes Isolated from Cells that Heterologously Express hNav1.7 and the β1 Subunit
# Preparation of membranes containing recombinantly expressed sodium channels: Frozen recombinant cell pellets were thawed on ice and diluted to 4 times the cell pellet weight with ice cold 50 mM Tris HCl, pH 7.4 buffer. The cell suspensions were homogenized on ice using a motorized glass dounce homogeniser. Homogenates were further diluted 8.4 times with ice cold 50 mM Tris HCl, pH 7.4 buffer and then centrifuged at 200×g at 4° C. for 15 min. The supernatants were collected and centrifuged at 10000×g at 4° C. for 50 min. The pellets were then re-suspended in 100 mM NaCl, 20 mM Tris HCl, pH 7.4 buffer containing 1% v/v protease inhibitors (Calbiochem) and re-homogenized on ice. The homogenized membranes were then processed through a syringe equipped with a 26 gauge needle. Protein concentrations were determined by Bradford Assay and the membranes were stored at −80° C.
# Radioligand Binding Studies: Saturation experiments. A representative compound of formula (I) was tritiated. Three tritiums were incorporated in place of methyl hydrogens to generate [^3H]compound. Binding of this radioligand was preformed in 5 mL borosilicate glass test tubes at room temperature. Binding was initiated by adding membranes to increasing concentrations of [^3H]compound in 100 mM NaCl, 20 mM Tris HCl, pH 7.4 buffer containing 0.01% w/v bovine serum albumin (BSA) for 18 h. Non-specific binding was determined in the presence of 1 μM unlabelled compound. After 18 h, the reactants were filtered through GF/C glass fiber filters presoaked in 0.5% w/v polyethylene imine. […] [^3H]compound bound to filters was quantified by liquid scintillation counting.
# Competitive binding experiments. Binding reactions were preformed in 96-well polypropylene plates at room temperature for 18 h. In 360 μL, membranes were incubated with 100 μM [^3H]compound and increasing concentrations of Test Compound. Non-specific binding was defined in the presence of 1 μM unlabelled compound. Reactions were transferred and filtered through 96-well glass fiber/C filter plates presoaked with 0.5% polyethylene imine. The filtered reactions were washed 5 times with 200 L ice cold buffer containing 0.25% BSA. Bound radioactivity was determined by liquid scintillation counting.
# Data Analysis: For saturation experiments, non-specific binding was subtracted from total binding to provide specific binding and these values were recalculated in terms of pmol ligand bound per mg protein. Saturation curves were constructed and dissociation constants were calculated using the single site ligand binding model: Beq=(Bmax*X)/(X+Kd), where Beq is the amount of ligand bound at equilibrium, Bmax is the maximum receptor density, Kd is the dissociation constant for the ligand, and X is the free ligand concentration.
row,IC50 [nM],Compound
1,1300,"CS(=O)(=O)NC(=O)c1cc(F)c(OCC23CC4CC(CC(C4)C2)C3)c(Cl)c1F [Example 306, N-(azetidin-1-ylsulfonyl)-5-cyclopropyl-4-((4,4-dichlorocyclohexyl)-methoxy)-2-fluorobenzamide]"
2,320,C[C@@H]1[C@@H](Oc2cc(F)c(C(=O)NS(C)(=O)=O)cc2Cl)C[C@H]2C[C@@H]1C2(C)C [Example 14]
3,260,C[C@@H]1[C@H]2C[C@@H](C[C@H]1Oc1cc(F)c(C(=O)NS(C)(=O)=O)cc1Cl)C2(C)C [Example 10]
4,4.32,O=C(NS(=O)(=O)C1CC1)c1cc(Cl)c(OCC23CC4CC(CC(C4)C2)C3)cc1F
5,1100,O=C(NS(=O)(=O)CCO)c1cnc(OCC23CC4CC(CC(C4)C2)C3)c(C2CC2)c1 [Example 174]

# Target: T1, hNav1.7
# Assay: Patch voltage clamp electrophysiology (PatchXpress), HEK-293 cells, inactivated state block
# Format: cell-based
# Details: HEK-293 cells, β1 coexpressed; inactivated state, holding −60 mV; read-out: EP_PX 293 hNav1.7 (IC50)
row,IC50 [nM],Compound
1,30.4,CN(C)S(=O)(=O)NC(=O)c1cc(Cl)c(OC2CC3CC2C2CCCC32)cc1F (stereo not drawn)
2,4600,"CS(=O)(=O)NC(=O)c1cc(F)c(OCC23CC4CC(CC(C4)C2)C3)c(Cl)c1F [Example 306, N-(azetidin-1-ylsulfonyl)-5-cyclopropyl-4-((4,4-dichlorocyclohexyl)-methoxy)-2-fluorobenzamide]"
3,8.7,CS(=O)(=O)NC(=O)c1cc(Cl)c(OCCC23CC4CC(CC(C4)C2)C3)cc1F [Example 11]
4,56.3,CS(=O)(=O)NC(=O)c1ccc(OCCC23CC4CC(CC(C4)C2)C3)c(Cl)c1
5,5.2,CS(=O)(=O)NC(=O)c1cc(Cl)c(OC2C3CC4CC(C3)CC2C4)cc1F (stereo not drawn) [Example 9]
6,4.3,O=C(NS(=O)(=O)N1CC(F)C1)c1cc(C2CC2)c(OCC23CC4CC(CC(C4)C2)C3)cc1F
7,84.7,CS(=O)(=O)NC(=O)c1cc(Cl)c(OC[C@H]2CC[C@H](C(F)(F)F)CC2)cc1F
8,3.8,CC1(C)[C@H]2CC[C@H](COc3cc(F)c(C(=O)NS(C)(=O)=O)cc3Cl)[C@@H]1C2

# Same assay, conditions: read-out: EP_PX 293 hNav1.7 (IC50)
row,Compound,IC50 [nM]
1,4-((1-((4-chlorophenyl)(phenyl)methyl)azetidin-3-yl)-methoxy)-5-cyclopropyl-2-fluoro-N-(methylsulfonyl)benzamide [Example 398],1300
2,C[C@H]1CC[C@H](COc2cc(F)c(C(=O)NS(=O)(=O)N3CCC3)cc2C2CC2)CC1 [Example 420],87
